Source: patent publication US20260382731A1, “BCL-2/BCL-XL PROTEIN DEGRADER AND USE THEREOF” (published 2026)

Protein sequences, listed by entry. Tags and fused reporters are not part of them.
UniProt Q07817, whole entry: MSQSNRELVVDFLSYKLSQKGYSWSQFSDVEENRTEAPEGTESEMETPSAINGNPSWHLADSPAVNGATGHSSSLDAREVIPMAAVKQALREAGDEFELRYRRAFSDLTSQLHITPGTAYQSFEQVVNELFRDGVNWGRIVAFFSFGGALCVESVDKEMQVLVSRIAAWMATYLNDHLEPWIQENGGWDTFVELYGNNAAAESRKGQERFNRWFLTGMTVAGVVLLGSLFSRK

Tests used:
MOLT-4 cells = test: Cell viability assay, MOLT-4 (CellTiter-Glo, 72 h); settings: read-out: MOLT4 Cell viability IC50
NCI-H146 cells = test: Cell viability assay, NCI-H146 (CellTiter-Glo, 72 h); settings: read-out: NCI-H146 Cell viability IC50
Protocol: Human T-ALL cell MOLT-4 or SCLC NCI-H146 was cultured using standard cell culture conditions in RPMI-1640 supplemented with 10% FBS in humidified incubator at 37 °C, 5% CO2. To assess the effect of BCL-XL PROTAC degraders on cell viability, exponentially growing cells were seeded at a density of 10,000 cells/well in 96-well plates. After cell seeding, serially-diluted compound or DMSO was added to the cells (in concentration ranging from 0 to 10 uM, 3* dilution series), and plates were incubated for 72 hours. Cell viability was measured using a CellTiter-Glo Luminescent Cell Viability Assay kit (Promega) according to the manufacturer's protocol. The luminescence signal of treated cells was normalized to DMSO control. The dose response curves and IC50 values were generated using Prism.

human platelets = test: Platelet viability test (CellTiter-Glo, 72 h); settings: read-out: Human platelet IC50
Protocol: Human platelet-rich Plasma (PRP) was purchased from Milestone® Biotechnology Limited. PRPS are used for experiments immediately after arrival. Transfer PRP to a 50-mL polypropylene EP tube containing 5 mL citrate buffer (cat. no. sc-214744, Santa Cruz Biotechnology). To avoid clotting, The final concentration of prostaglandin E1 (PGE1, cat. no. sc-201223A, Santa Cruz Biotechnology) and adenosine diphosphonase triphosphate (cat. no. A6410-200UN, 2 units/mL, respectively) were added to the EP tube. Sigma-Aldrich). Slightly shake and mix the liquid in the EP tube, centrifuge it at 1200 g for 10 minutes, and separate the platelets. HEPES buffer benchtop solution (10 mM HEPES, 135 mM NaCl, 2.8 mM KCl, 1 mM MgCl2, 2 mM CaCl2), 10 mm Hepes, 135 mm NaCl, 2.8 mm KCL, 1 mm MgCl2, 2 mm CaCl2)) was prepared with 2 mL of prostaglandin E1 and 2 units/mL of adenosine bisphosphonase triphosphate. 12 mM NaHCO3, 0.4 mM NaH2PO4, 0.25% BSA and 5.5 mM glucose, pH 7.4; cat. no. Cat. No. Cat. #:25-02580, Tiandz) continuously and gently clean the platelet precipitates after centrifugation. After washing, platelets were slowly reinserted to HEPES buffer table solution containing 1 μM of prostaglandin E1 and 2 units/mL of adenosine bisphosphonase triphosphate. Platelets were counted by Vi-cell XR (Backman) cell counter. Platelet activity tests were performed: platelets were resuscitated into a HEPES buffer solution containing 1 µM of prostaglandin E1 and 2 units/mL of adenosine bisphosphonase triphosphate and 10% FBS, counted, and inoculated into 96-well plates with 5×10^5 platelets per well. Different concentrations of the compound to be detected (starting at 10 μM, diluted 3 times) were added to 96-well plates and incubated in the cell incubator for 72 h. 72 h after administration, platelet activity was detected by CellTiter-Glo™ luminescence assay.

BCL-XL = BCL-XL (Homo sapiens, UniProt Q07817); test: Immunoblotting: BCL-XL protein degradation
[1] = read-out: MDA-MB-231 degradation DC50, MDA-MB-231 cells

Row | SMILES | IC50 (MOLT-4 cells) [µM] | IC50 (NCI-H146 cells) [µM] | DC50 (BCL-XL; [1]) [µM] | DC50 (BCL-XL; read-out: MOLT4 Degradation DC50, MOLT4 cells) [µM] | IC50 (human platelets) [µM]
1 | CCn1c(C)c(S(C)(=O)=O)c(-c2cc(F)cc(N3CCN(c4ccc(NS(=O)(=O)c5ccc(N[C@H](CCN6CCN(C7CCN(CCOc8cc([C@H](C(=O)N9C[C@H](O)C[C@H]9C(=O)N[C@@H](CO)c9ccc(-c%10scnc%10C)cc9)C(C)C)on8)CC7)CC6)CSc6ccccc6)c(S(=O)(=O)C(F)(F)F)c5)cn4)CC3)c2)c1-c1ccc(F)cc1 | 0.007 | 0.041 | – | – | –
2 | CCn1c(C)c(S(C)(=O)=O)c(-c2cc(F)cc(N3CCN(c4ncc(NS(=O)(=O)c5ccc(N[C@H](CCN6CCN(C7CC(Oc8cc([C@@H](C(=O)N9C[C@H](O)C[C@H]9C(=O)N[C@@H](CO)c9ccc(-c%10scnc%10C)cc9)C(C)C)on8)C7)CC6)CSc6ccccc6)c(S(=O)(=O)C(F)(F)F)c5)cn4)CC3)c2)c1-c1ccc(F)cc1 (single isomer, unassigned) [369] | 0.221 | 0.377 | – | – | –
3 | CCn1c(C)c(S(C)(=O)=O)c(-c2cc(F)cc(N3CCN([C@H]4CC[C@H](NS(=O)(=O)c5ccc(N[C@H](CCN6CCN(C7CCN(CCOc8cc([C@H](C(=O)N9C[C@H](O)C[C@H]9C(=O)N[C@@H](CO)c9ccc(-c%10scnc%10C)cc9)C(C)C)on8)CC7)CC6)CSc6ccccc6)c(S(=O)(=O)C(F)(F)F)c5)CC4)CC3)c2)c1-c1ccc(F)cc1 | 0.01 | 0.144 | – | – | –
4 | Cc1ncsc1-c1ccc([C@H](C)NC(=O)[C@@H]2C[C@@H](O)CN2C(=O)[C@@H](NC(=O)CCCCCC(=O)N2CCN(CC[C@H](CSc3ccccc3)Nc3ccc(S(=O)(=O)NC(=O)c4ccc(N5CCN(CC6=C(c7ccc(Cl)cc7)CCC(C)(C)C6)CC5)cc4)cc3S(=O)(=O)C(F)(F)F)CC2)C(C)(C)C)cc1 | 0.044 | 0.14 | 0.011 | 0.02 | 8.35
5 | CCn1c(C)c(C(=O)N2CCC(O)(CF)C2)c(-c2cc(F)cc(N3CCN(c4ccc(NS(=O)(=O)c5ccc(N[C@H](CCN6CCN(C(=O)CCCCCC(=O)N[C@H](C(=O)N7C[C@H](O)C[C@H]7C(=O)N[C@@H](C)c7ccc(-c8scnc8C)cc7)C(C)(C)C)CC6)CSc6ccccc6)c(S(=O)(=O)C(F)(F)F)c5)cc4)CC3)c2)c1-c1ccc(F)cc1 (stereo partly drawn) | 0.02 | – | 0.01 | – | 4.12
6 | CCn1c(C)c(C(=O)NCCCN2CCOCC2)c(-c2cc(F)cc(N3CCN(c4ccc(NS(=O)(=O)c5ccc(N[C@H](CCN6CCN(C(=O)CCCCCC(=O)N[C@H](C(=O)N7C[C@H](O)C[C@H]7C(=O)N[C@@H](C)c7ccc(-c8scnc8C)cc7)C(C)(C)C)CC6)CSc6ccccc6)c(S(=O)(=O)C(F)(F)F)c5)cc4)CC3)c2)c1-c1ccc(F)cc1 | 0.019 | – | 0.032 | – | 0.266
7 | Cc1ncsc1-c1ccc([C@H](C)NC(=O)[C@@H]2C[C@@H](O)CN2C(=O)[C@@H](NC(=O)CCCCCC(=O)N2CCN(CC[C@H](CSc3ccccc3)Nc3ccc(S(=O)(=O)Nc4ccc(N5CCN(c6cc(F)cc(-c7c(S(C)(=O)=O)c(C)n(C(C)C)c7-c7ccc(F)cc7)c6)CC5)cc4)cc3S(=O)(=O)C(F)(F)F)CC2)C(C)(C)C)cc1 | 0.036 | – | 0.004 | – | 0.103
8 | CCn1c(C)c(S(=O)(=O)N2CC[C@](C)(O)C2)c(-c2cc(F)cc(N3CCN(c4ccc(NS(=O)(=O)c5ccc(N[C@H](CCN6CCN(C(=O)CCCCCC(=O)N[C@H](C(=O)N7C[C@H](O)C[C@H]7C(=O)N[C@@H](C)c7ccc(-c8scnc8C)cc7)C(C)(C)C)CC6)CSc6ccccc6)c(S(=O)(=O)C(F)(F)F)c5)cc4)CC3)c2)c1-c1ccc(F)cc1 | 0.009 | – | 0.031 | – | 0.32
9 | CCn1c(C)c(S(C)(=O)=O)c(-c2cc(F)cc(N3CCN(c4ccc(NS(=O)(=O)c5ccc(N[C@H](CCN6CCN(C(=O)CCCOCC(=O)N[C@H](C(=O)N7C[C@H](O)C[C@H]7C(=O)N[C@@H](C)c7ccc(-c8scnc8C)cc7)C(C)(C)C)CC6)CSc6ccccc6)c(S(=O)(=O)C(F)(F)F)c5)cc4)CC3)c2)c1-c1ccc(F)cc1 | 0.031 | – | 0.003 | – | 0.64
10 | CCn1c(C)c(S(C)(=O)=O)c(-c2cc(F)cc(N3CCN(c4ccc(NS(=O)(=O)c5ccc(N[C@H](CCN6CCN(C7CCN(CCOc8cc([C@@H](C(=O)N9C[C@H](O)C[C@H]9C(=O)N[C@@H](CO)c9ccc(-c%10scnc%10C)cc9)C(C)C)on8)CC7)CC6)CSc6ccccc6)c(S(=O)(=O)C(F)(F)F)c5)nc4)CC3)c2)c1-c1ccc(F)cc1 | 0.393 | 0.85 | – | – | –
11 | CCn1c(C)c(S(C)(=O)=O)c(-c2cc(F)cc(N3CCN(c4ccc(NS(=O)(=O)c5ccc(N[C@H](CCN6CCN(C(=O)CCCCCCC(=O)N[C@H](C(=O)N7C[C@H](O)C[C@H]7C(=O)N[C@@H](C)c7ccc(-c8scnc8C)cc7)C(C)(C)C)CC6)CSc6ccccc6)c(S(=O)(=O)C(F)(F)F)c5)cc4)CC3)c2)c1-c1ccc(F)cc1 | 0.05 | – | 0.002 | – | 0.84
12 | CCn1c(C)c(S(C)(=O)=O)c(-c2cc(F)cc(N3CCN(c4ncc(NS(=O)(=O)c5ccc(N[C@H](CCN6CCN(C7CC(Oc8cc([C@@H](C(=O)N9C[C@H](O)C[C@H]9C(=O)N[C@@H](CO)c9ccc(-c%10scnc%10C)cc9)C(C)C)on8)C7)CC6)CSc6ccccc6)c(S(=O)(=O)C(F)(F)F)c5)cn4)CC3)c2)c1-c1ccc(F)cc1 (single isomer, unassigned) [371] | 0.306 | 0.669 | – | – | –

Molecules with a lower IC50 (MOLT-4 cells), results first:

Row | IC50 (MOLT-4 cells) [µM] | IC50 (NCI-H146 cells) [µM] | DC50 (BCL-XL; [1]) [µM] | DC50 (BCL-XL; read-out: MOLT4 Degradation DC50, MOLT4 cells) [µM] | SMILES | IC50 (human platelets) [µM]
13 | 0.004 | 0.014 | – | – | CCn1c(C)c(S(C)(=O)=O)c(-c2cc(F)cc(N3CCN(c4ncc(NS(=O)(=O)c5ccc(N[C@H](CCN6CCN(CCCc7cc([C@H](C(=O)N8C[C@H](O)C[C@H]8C(=O)N[C@@H](CO)c8ccc(-c9scnc9C)cc8)C(C)C)on7)CC6)CSc6ccccc6)c(S(=O)(=O)C(F)(F)F)c5)cn4)CC3)c2)c1-c1ccc(F)cc1 | –
14 | 0.002 | 0.01 | – | – | CCn1c(C)c(S(C)(=O)=O)c(-c2cc(F)cc(N3CCN(c4ncc(NS(=O)(=O)c5ccc(N[C@H](CCN6CCN(C7CC(Oc8cc([C@H](C(=O)N9C[C@H](O)C[C@H]9C(=O)N[C@@H](CO)c9ccc(-c%10scnc%10C)cc9)C(C)C)on8)C7)CC6)CSc6ccccc6)c(S(=O)(=O)C(F)(F)F)c5)cn4)CC3)c2)c1-c1ccc(F)cc1 (single isomer, unassigned) [372] | –
15 | 0.006 | 0.032 | – | – | CCn1c(C)c(S(C)(=O)=O)c(-c2cc(F)cc(N3CCN(c4ccc(NS(=O)(=O)c5ccc(N[C@H](CCN6CCN(C7CCN(CCOc8cc([C@H](C(=O)N9C[C@H](O)C[C@H]9C(=O)N[C@@H](CO)c9ccc(-c%10scnc%10C)cc9)C(C)C)on8)CC7)CC6)CSc6ccccc6)c(S(=O)(=O)C(F)(F)F)c5)nc4)CC3)c2)c1-c1ccc(F)cc1 | –
16 | 0.003 | 0.012 | – | – | CCn1c(C)c(S(C)(=O)=O)c(-c2cc(F)cc(N3CCN(c4cnc(NS(=O)(=O)c5ccc(N[C@H](CCN6CCN(C7CCN(CCOc8cc([C@H](C(=O)N9C[C@H](O)C[C@H]9C(=O)N[C@@H](CO)c9ccc(-c%10scnc%10C)cc9)C(C)C)on8)CC7)CC6)CSc6ccccc6)c(S(=O)(=O)C(F)(F)F)c5)cn4)CC3)c2)c1-c1ccc(F)cc1 | –
17 | 0.004 | 0.017 | – | – | CCn1c(C)c(S(C)(=O)=O)c(-c2cc(F)cc(N3CCN(c4ncc(NS(=O)(=O)c5ccc(N[C@H](CCN6CCN(C7CC(Oc8cc([C@H](C(=O)N9C[C@H](O)C[C@H]9C(=O)N[C@@H](CO)c9ccc(-c%10scnc%10C)cc9)C(C)C)on8)C7)CC6)CSc6ccccc6)c(S(=O)(=O)C(F)(F)F)c5)cn4)CC3)c2)c1-c1ccc(F)cc1 (single isomer, unassigned) [370] | –
18 | 0.004 | 0.015 | – | – | CCn1c(C)c(S(C)(=O)=O)c(-c2cc(F)cc(N3CCN(c4ncc(NS(=O)(=O)c5ccc(N[C@H](CCN6CCN(CCCOc7cn([C@H](C(=O)N8C[C@H](O)C[C@H]8C(=O)N[C@@H](CO)c8ccc(-c9scnc9C)cc8)C(C)(C)C)nn7)CC6)CSc6ccccc6)c(S(=O)(=O)C(F)(F)F)c5)cn4)CC3)c2)c1-c1ccc(F)cc1 | –

Like-named read-outs stand apart in the source and are kept apart here.
